# Data as given in patent publication US20070207975A1, “Materials and methods for treating and preventing Her-2/neu overexpressing, FAS-elevated cancer cells” (EVANSTON NORTHWESTERN HEALTHCARE, priority 2006, published 2007).
# Columns and labels:
# Format in all cases: cell-based, human
# [1] = test system: phospho-MAPK and phospho-Ser^473 AKT; assay: Western blot of phospho-MAPK and phospho-AKT; conditions: BT-474; 48 hours; OA 5 μM, trastuzumab 10 μg/ml in combination
# Protocol: FIG. 8. Exogenous supplementation with OA enhanced trastuzumab-induced inhibition of AKT and MAPK phosphoproteins. […] Equal amounts of total protein (25 mg per lane) were subjected to Western blot analyses with anti-phospho-AKT^Ser473 or anti-phospho-MAPK antibodies, and then re-probed with anti-AKT, anti-MAPK and β-actin antibodies. […] Similar results were obtained in three independent experiments.
# (§1) The lysates were cleared by centrifugation in an Eppendorf tube (15 minutes at 14,000 r.p.m. at 4° C.). Protein content was determined against a standardized control using the Pierce protein assay kit (Rockford, Ill.). Equal amounts of protein were heated in SDS sample buffer (Laemli buffer) for 10 minutes at 70° C., subjected to electrophoresis on either 3-8% NuPAGE or 10% SDS-PAGE (p27^Kip1, ^PARP, MAPK and AKT), and then transferred to nitrocellulose membranes. […] The membranes were washed in TBS-T, horseradish peroxidase-conjugated secondary antibodies (Jackson Immunoresearch Laboratories) in TBS-T were added for 1 hour, and immunoreactive bands were detected by enhanced chemiluminescence reagent (Pierce). […] Densitometric values of protein bands were quantified using Scion Imaging Software (Scion Corp., Frederick, Md.).
# SK-Br3 and BT-474 cells = assay: Anchorage-dependent cell proliferation (Coulter Counter); conditions: low concentrations of OA, increasing concentrations of trastuzumab, or combination, 6 days
# Protocol: FIG. 3. […] (A) Left panel: exponentially growing SK-Br3 and BT-474 cells were trypsinized and plated in 24-well plates at a density of 10,000 cells/well. Cells were incubated for 24 hours to allow for attachment and starved for serum overnight, after which a zero time point was determined. Cells were treated with OA, trastuzumab, or combinations of these compounds, as specified. Cells were counted at days 0, 3 and 6 with a Coulter Counter. All assays were performed three times in triplicate. The data are presented as mean number of cells×10^4/well (columns)±SD (bars) after 6 days treatment. […] Colony formation (≧50 μm) was assessed using a colony counter. Each experimental value represents the mean colony number (columns)±SD (bars) from three separate experiments in which triplicate dishes were counted. […]
# SK-Br3 and BT-474 cells exponentially growing in IMEM-5% FBS were trypsinized and re-plated in 24-well plates at a density of 10,000 cells/well. Cells were incubated for 24 hours to allow for attachment, after which a zero time point was determined. […] Cell number was determined at days 0, 3 and 6 with a Coulter Counter (Coulter Electronics, Inc., Hialeah, Fla.). […]
# p27^Kip1 = assay: Western blot of p27Kip1 expression; conditions: BT-474; 72 hours; OA, trastuzumab or combination
# Protocol: FIG. 7. Exogenous supplementation with OA synergistically enhances trastuzumab-induced up-regulation and nuclear accumulation of p27^Kip1. […] Equal amounts of total protein (50 mg per lane) were subjected to Western blot analyses with an anti-p27^Kip1 rabbit polyclonal antibody and then re-probed with a β-actin antibody. […] Similar results were obtained in three independent experiments. […] After 72 hours, p27^Kip1 cellular localization was evaluated by immunofluorescence following a 2 hour incubation with an anti-p27^Kip1 rabbit polyclonal antibody diluted 1:200 in 0.05% Triton X-100/PBS. Cellular localization of P27^Kip1 was detected by indirect immunofluorescence by incubating with TRITC-conjugated anti-rabbit IgG secondary antibody. […]
# as §1, with “Ill.).” for “Ill.). Equal amounts of protein were heated in SDS sample buffer (Laemli buffer) for 10 minutes at 70° C., subjected to electrophoresis on either 3-8% NuPAGE or 10% SDS-PAGE (p27^Kip1, ^PARP, MAPK and AKT), and then transferred to nitrocellulose membranes.”
substance,measurement,setting,value
"trastuzumab: humanized monoclonal IgG1, binding with high affinity to the ectodomain of p185^Her-2/neu [reference compound]","active MAPK and active AKT (phospho-MAPK, phospho-Ser^473 AKT)",[1],significantly inhibited MAPK as well as AKT function
same,anchorage-dependent cell growth,SK-Br3 and BT-474 cells,significantly decreased
same,expression of p27^Kip1,p27^Kip1,significantly enhanced
